This is an account of results in ChEMBL document CHEMBL3433997, “St. Jude Leishmania screening dataset” (2016).

Type in all cases: functional
For assay [1], the target named is Solute carrier family 2, facilitated glucose transporter member 1 (Homo sapiens) (UniProt P11166). Put plainly: ST_JUDE_LEISH: Cytotoxicity at 2uM final concentration against transgenic Leishmania Mexicana promastigotes LmGLUT1 that are glucose transport deficient and complemented with the human glucose transporter GLUT1. Activity is measured by DNA content using SYBR green in vitro.

Assay [2] concerns the target Hexose transporter 1 (Plasmodium falciparum) (UniProt O97467). Put plainly: ST_JUDE_LEISH: Cytotoxicity at 2uM final concentration against transgenic Leishmania Mexicana promastigotes LmPfHT that are glucose transport deficient and complemented with the Plasmodium falciparum hexose transporter. Activity is measured by DNA content using SYBR green in vitro.
Assay [3] has as its target Glucose transporter (Leishmania mexicana) (UniProt O61059). Put plainly: ST_JUDE_LEISH: Cytotoxicity at 2uM final concentration against transgenic Leishmania Mexicana promastigotes LmGT2 that are glucose transport deficient and complemented with the L. Mexicana glucose transporter 2. Activity is measured by DNA content using SYBR green in vitro.

The strong results were mostly taken out for another list; the other results follow.

In general, inhibition refers to the percentage by which the read-out fell short of the control. For the compound `COc1ccc(Cc2cnc3nc(N)nc(N)c3c2C)cc1OC`, the inhibition in assay [1] came to 26.4%; in assay [2], 41.2%; in assay [3], 33%.

Take `CCCCCc1cnc2nc(N)nc(N)c2c1`: the figures for the inhibition in assay [1], in assay [2] and in assay [3] were 3.59%, 3.64% and 2.64%, respectively.

Regarding `N=C(N)c1ccc(Oc2ccc(C(=N)N)cc2)cc1`, the inhibition in assay [1] was found to be 3.97%; in assay [2], 5.31%; in assay [3], 5.26%.
